Laboratory results from patent US20210054047A1, “NOVEL ANTICANCER FUSION PROTEIN AND USE THEREOF” (KOREA INSTITUTE OF SCIENCE AND TECHNOLOGY, priority 2018, published 2021).

Assay: DOX loading by fluorescence intensity
Type: physicochemical
Protocol: DOX (Sigma-Aldrich) was pre-incubated with CuCl2 at a 2:1 molecular ratio of DOX to Cu^2+ at room temperature for 20 min, as described previously. TTPNs were incubated with Cu(II)-DOX solution (1:200 molecular ratio of TTPNs to DOX) at 4° C. overnight. Free DOX was removed by dialysis and the encapsulation of DOX into TTPNs was analyzed by SEC using a Superdex 200 column (GE Healthcare). The amount of loaded DOX in TTPNs was determined by measuring fluorescence intensity of DOX using a DS-11 FX+ Fluorometer (DeNovix). After the disassembly process of DOX-TTPNs by mixing with 0.5 N HCl for 1 hour, the number of DOX molecules was quantified relatively using a standard curve of DOX fluorescence intensity.

With “wtFTN: wild type ferritin nanocage (human ferritin heavy chain)” as the substance, how does the “DOX encapsulated in inner cavity” value read?
The value was “up to 40 molecules of DOX”.
